From patent publication US6405626B1, “Decontaminating and dispersion suppressing foam formulation” (dated 2002)

Assay: Precipitation of oxidizing agent on standing

## O=c1[nH]c(=O)n(Cl)c(=O)n1Cl.[Na]
  concentration above which signs of precipitation appear on standing: above 2%
